Molecular target: Acetylcholinesterase (Electrophorus electricus, UniProt O42275)
Test: Inhibition of Electrophorus electricus (electric eel) acetylcholinesterase by Ellman method

The chains behind the UniProt entries cited, without tags or fusion partners. Residues count along the entry.
UniProt O42275, 24-633 limits assumed: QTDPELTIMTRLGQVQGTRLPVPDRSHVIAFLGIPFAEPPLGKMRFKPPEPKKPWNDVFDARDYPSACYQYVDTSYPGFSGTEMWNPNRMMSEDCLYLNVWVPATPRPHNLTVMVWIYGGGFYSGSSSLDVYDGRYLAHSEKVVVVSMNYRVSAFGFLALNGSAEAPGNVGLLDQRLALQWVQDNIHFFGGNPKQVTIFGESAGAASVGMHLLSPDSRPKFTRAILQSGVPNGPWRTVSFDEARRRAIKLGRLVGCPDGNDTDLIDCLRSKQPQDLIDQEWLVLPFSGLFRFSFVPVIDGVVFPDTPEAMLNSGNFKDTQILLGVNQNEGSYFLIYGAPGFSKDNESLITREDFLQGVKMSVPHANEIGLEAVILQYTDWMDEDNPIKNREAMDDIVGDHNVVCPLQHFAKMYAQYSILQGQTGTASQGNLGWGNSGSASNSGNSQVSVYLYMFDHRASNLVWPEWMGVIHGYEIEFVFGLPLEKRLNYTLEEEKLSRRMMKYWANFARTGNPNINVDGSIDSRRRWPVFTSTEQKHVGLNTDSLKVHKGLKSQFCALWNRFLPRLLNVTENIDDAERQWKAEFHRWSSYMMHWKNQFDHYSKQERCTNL

`CCOP(=S)(OCC)SCc1cccc(CSP(=S)(OCC)OCC)n1` showed an IC50 of 352 µM.
Compound `CCOP(=O)(OCC)SCc1cccc(CSP(=O)(OCC)OCC)n1` has an IC50 of 91.7 µM.

From BindingDB's records for 19481235
